Here are results for one compound from PubChem BioAssay AID743256 (The Scripps Research Institute Molecular Screening Center, 2014).

By UniProt entry, the sequences of proteins in these tests, tags left out. Where a name states a change or a piece, a line headed by the entry shows the natural chain unless it says otherwise.
UniProt O14672: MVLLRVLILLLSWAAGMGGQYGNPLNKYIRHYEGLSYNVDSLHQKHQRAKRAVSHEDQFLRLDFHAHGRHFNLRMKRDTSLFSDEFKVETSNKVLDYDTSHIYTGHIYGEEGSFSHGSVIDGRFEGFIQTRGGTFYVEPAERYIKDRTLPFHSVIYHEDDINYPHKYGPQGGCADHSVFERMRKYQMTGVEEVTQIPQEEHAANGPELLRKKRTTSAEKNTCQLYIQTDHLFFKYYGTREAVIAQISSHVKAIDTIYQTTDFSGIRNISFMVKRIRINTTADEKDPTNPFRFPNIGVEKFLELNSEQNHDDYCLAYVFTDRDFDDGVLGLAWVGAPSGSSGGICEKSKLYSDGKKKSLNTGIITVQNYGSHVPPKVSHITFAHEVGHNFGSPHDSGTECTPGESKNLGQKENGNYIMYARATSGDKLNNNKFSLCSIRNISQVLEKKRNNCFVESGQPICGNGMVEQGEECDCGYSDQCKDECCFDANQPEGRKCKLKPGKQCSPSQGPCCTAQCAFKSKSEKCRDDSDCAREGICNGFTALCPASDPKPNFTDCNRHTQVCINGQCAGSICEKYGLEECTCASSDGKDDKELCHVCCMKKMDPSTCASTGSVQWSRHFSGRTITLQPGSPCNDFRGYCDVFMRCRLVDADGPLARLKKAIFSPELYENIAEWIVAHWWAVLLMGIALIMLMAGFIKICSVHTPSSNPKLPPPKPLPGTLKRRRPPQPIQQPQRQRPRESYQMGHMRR

As usually defined, the inhibition is the relative decrease from the control value, in per cent.

This is a selection; strong and weak results do not stand in their true shares. The source made the active and inactive calls.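 Rule for the calls: active = mean inhibition over the triplicate runs exceeds the activity threshold set in the earlier primary screen (cut at about 20% in these data); inactive = the rest.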

For this assay, the target named is Disintegrin and metalloproteinase domain-containing protein 10 (Homo sapiens) (UniProt O14672). The experiment in a line: blockers of ADAM10 peptide cleavage – biochemical, FRET, human ADAM10, counter-screen for ADAM17 exosite inhibitor project (AID 743256).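 Note: 0% = DMSO wells and 100% = marimastat wells.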 The conditions noted are these: recombinant ADAM10, EDANS/DABCYL FRET peptide cleavage, 3 h; at 6.95 µM; hits give high values. Summed up: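 Assay system: ADAM10 enzyme, biochemical assay | Amount: Enzyme 2X stock at 20 nM | Timing: Compound–enzyme preincubation 30 min, then 3 h substrate cleavage, both 25 °C | Measured by: EDANS fluorescence, excitation 359 nm, emission 460 nm | Control set: 1 µM marimastat (high) and DMSO (low)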
For orientation: Counterscreens check selectivity or assay interference.
Regarding `O=[N+]([O-])c1cc([N+](=O)[O-])c(CCNc2ccccc2)c([N+](=O)[O-])c1`, the inhibition was inactive: -1.4%.
